Test results: patent US12600725B2 (Memorial Sloan-Kettering Cancer Center, priority 2013, dated 2026)

By UniProt entry, the sequences of proteins in these tests, tags left out. Where a name states a change or a piece, a line headed by the entry shows the natural chain unless it says otherwise.
UniProt P41148: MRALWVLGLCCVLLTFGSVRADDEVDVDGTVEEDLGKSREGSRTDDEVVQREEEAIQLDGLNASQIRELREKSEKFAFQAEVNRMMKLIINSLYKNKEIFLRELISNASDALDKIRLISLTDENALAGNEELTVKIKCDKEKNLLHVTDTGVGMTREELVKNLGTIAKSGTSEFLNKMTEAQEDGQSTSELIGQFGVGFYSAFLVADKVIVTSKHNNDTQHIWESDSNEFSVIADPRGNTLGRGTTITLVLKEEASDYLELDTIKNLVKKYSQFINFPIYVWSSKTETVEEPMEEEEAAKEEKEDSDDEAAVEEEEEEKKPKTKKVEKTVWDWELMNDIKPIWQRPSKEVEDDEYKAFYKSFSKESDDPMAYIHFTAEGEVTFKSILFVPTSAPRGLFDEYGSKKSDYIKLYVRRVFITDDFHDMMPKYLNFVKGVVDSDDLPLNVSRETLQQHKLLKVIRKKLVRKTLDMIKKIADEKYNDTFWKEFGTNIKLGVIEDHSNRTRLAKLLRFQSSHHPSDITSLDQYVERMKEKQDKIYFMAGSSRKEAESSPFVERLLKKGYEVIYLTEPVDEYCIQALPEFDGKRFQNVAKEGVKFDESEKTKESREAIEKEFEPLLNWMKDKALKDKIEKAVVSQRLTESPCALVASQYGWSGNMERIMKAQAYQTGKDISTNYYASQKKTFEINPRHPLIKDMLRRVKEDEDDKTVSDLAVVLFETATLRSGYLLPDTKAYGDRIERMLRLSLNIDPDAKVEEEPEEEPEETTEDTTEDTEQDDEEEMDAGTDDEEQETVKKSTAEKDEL

Molecular target: Grp94 (Canis lupus familiaris, UniProt P41148)
Conditions: read-out: Grp94; FP competition, 6 nM Cy3B-GM, 10 nM protein, 4° C. for 24 h

## C#CCCCn1c(Sc2cc(C)ccc2C)nc2c(N)ncnc21 [PU-H27]
  IC50: 1.14 ± 0.14 µM
